# Test results from patent US10828316B2, “Method of treating bacterial infections” (priority 2016, dated 2020).
# Like-named read-outs stand apart in the source and are kept apart here.
# Tested on: E. cloacae strain no 6
# Assay: MIC
# Type: cell-based
# Conditions: Enterobacter cloacae
# [1] = NO6, E. cloacae strain 6, 5 uM thymidine, uridine 0 μg/ml, read-out: MIC
smiles,measurement,setting,value
"COc1cc(Cc2cnc(N)nc2N)cc(OC)c1OC [Trimethoprim, trimethoprim]",MIC,[1],< 20 µg/mL
same,MIC,"NO6, E. cloacae strain 6, 5 uM thymidine, uridine 10 μg/ml, read-out: MIC",< 20 µg/mL
same,MIC,"NO6, E. cloacae strain 6, 5 uM thymidine, uridine 100 μg/ml, read-out: MIC",< 20 µg/mL
"Cc1cn([C@H]2C[C@H](N=[N+]=[N-])[C@@H](CO)O2)c(=O)[nH]c1=O [AZT, 3′-azido-3′-deoxythymidine]",MIC,[1],5 to 10 µg/mL
same,MIC,"NO6, read-out: MIC AZT, E. cloacae strain 6, thymidine 0 μM, uridine 0",5 to 10 µg/mL
same,MIC,"NO6, read-out: MIC AZT, E. cloacae strain 6, thymidine 0 μM, uridine 100 and trimethoprim 1 μg/ml",≤ 0.001 µg/mL
same,MIC,"NO6, read-out: MIC AZT, E. cloacae strain 6, thymidine 10 μM, uridine 0",5 to 10 µg/mL
same,MIC,"NO6, read-out: MIC AZT, E. cloacae strain 6, thymidine 10 μM, uridine 100 μg/ml",5 to 10 µg/mL
same,MIC,"NO6, read-out: MIC AZT, E. cloacae strain 6, thymidine 10 μM, uridine 100 and trimethoprim 1 μg/ml",0.05 to 0.1 µg/mL
same,MIC,"NO6, read-out: MIC AZT, E. cloacae strain 6, thymidine 30 μM, uridine 0",5 to 10 µg/mL
same,MIC,"NO6, read-out: MIC AZT, E. cloacae strain 6, thymidine 30 μM, uridine 100 μg/ml",> 10 µg/mL
same,MIC,"NO6, read-out: MIC AZT, E. cloacae strain 6, thymidine 30 μM, uridine 100 and trimethoprim 1 μg/ml",> 0.1 µg/mL
same,MIC,"NO6, read-out: MIC of AZT, E. cloacae strain 6, trimethoprim 1 μg/ml, uridine 0 μg/ml",0 to 0.05 µg/mL
same,MIC,"NO6, read-out: MIC of AZT, E. cloacae strain 6, trimethoprim 1 μg/ml, uridine 10 μg/ml",0 to 0.05 µg/mL
same,MIC,"NO6, read-out: MIC of AZT, E. cloacae strain 6, trimethoprim 1 μg/ml, uridine 100 μg/ml",0 to 0.05 µg/mL
same,MIC,"NO6, read-out: MIC of AZT, E. cloacae strain 6, trimethoprim 2 μg/ml, uridine 0 μg/ml",0 to 0.05 µg/mL
same,MIC,"NO6, read-out: MIC of AZT, E. cloacae strain 6, trimethoprim 2 μg/ml, uridine 10 μg/ml",0 to 0.05 µg/mL
same,MIC,"NO6, read-out: MIC of AZT, E. cloacae strain 6, trimethoprim 2 μg/ml, uridine 100 μg/ml",0 to 0.05 µg/mL
same,MIC,"NO6, read-out: MIC of AZT, E. cloacae strain no 6, uridine 0 μg/ml",10 to 20 µg/mL
same,MIC,"NO6, read-out: MIC of AZT, E. cloacae strain no 6, uridine 10 μg/ml",5 to 10 µg/mL
same,MIC,"NO6, read-out: MIC of AZT, E. cloacae strain no 6, uridine 50 μg/ml",5 to 10 µg/mL
same,MIC,"NO6, read-out: MIC of AZT, E. cloacae strain no 6, uridine 100 μg/ml",2 to 5 µg/mL
same,MIC,"NO6, read-out: MIC of AZT, E. cloacae strain no 6, uridine 200 μg/ml",2 to 5 µg/mL
same,MIC,"NO6, read-out: MIC of AZT, Table 4, E. cloacae strain 6, trimethoprim 0, uridine 0 μg/ml",10 to 20 µg/mL
same,MIC,"NO6, read-out: MIC of AZT, Table 4, E. cloacae strain 6, trimethoprim 0, uridine 10 μg/ml",5 to 10 µg/mL
same,MIC,"NO6, read-out: MIC of AZT, Table 4, E. cloacae strain 6, trimethoprim 0, uridine 100 μg/ml",2 to 5 µg/mL
same,MIC,"NO6, read-out: MIC of AZT, Table 4, E. cloacae strain 6, trimethoprim 0, uridine 200 μg/ml",2 to 5 µg/mL
"O=c1[nH]cnc2c1ncn2[C@H]1CC[C@@H](CO)O1 [Didanosine, didanosine]",MIC,"NO6, read-out: MIC Didanosine, E. cloacae strain 6, trimethoprim 0, uridine 0 μg/ml",> 30 µg/mL
same,MIC,"NO6, read-out: MIC Didanosine, E. cloacae strain 6, trimethoprim 0, uridine 10 μg/ml",> 30 µg/mL
same,MIC,"NO6, read-out: MIC Didanosine, E. cloacae strain 6, trimethoprim 1 μg/ml, uridine 0 μg/ml",1 to 2.5 µg/mL
same,MIC,"NO6, read-out: MIC Didanosine, E. cloacae strain 6, trimethoprim 1 μg/ml, uridine 10 μg/ml",0.1 to 0.5 µg/mL
same,MIC,"NO6, read-out: MIC Didanosine, E. cloacae strain 6, trimethoprim 2 μg/ml, uridine 0 μg/ml",> 2.5 µg/mL
same,MIC,"NO6, read-out: MIC Didanosine, E. cloacae strain 6, trimethoprim 2 μg/ml, uridine 10 μg/ml",> 2.5 µg/mL
